The kinase profiling compilation of Christmann-Franck et al. (2016)
Values joined by “and” are separate entries in the source; they are usually repeats but may differ in a detail not shown here. Identical values can stand only once.

Chains of the proteins cited; added tags and fusions are not shown. Lines headed by an entry give the natural chain unless they say otherwise; changes in a name come on top.
UniProt Q9H2G2: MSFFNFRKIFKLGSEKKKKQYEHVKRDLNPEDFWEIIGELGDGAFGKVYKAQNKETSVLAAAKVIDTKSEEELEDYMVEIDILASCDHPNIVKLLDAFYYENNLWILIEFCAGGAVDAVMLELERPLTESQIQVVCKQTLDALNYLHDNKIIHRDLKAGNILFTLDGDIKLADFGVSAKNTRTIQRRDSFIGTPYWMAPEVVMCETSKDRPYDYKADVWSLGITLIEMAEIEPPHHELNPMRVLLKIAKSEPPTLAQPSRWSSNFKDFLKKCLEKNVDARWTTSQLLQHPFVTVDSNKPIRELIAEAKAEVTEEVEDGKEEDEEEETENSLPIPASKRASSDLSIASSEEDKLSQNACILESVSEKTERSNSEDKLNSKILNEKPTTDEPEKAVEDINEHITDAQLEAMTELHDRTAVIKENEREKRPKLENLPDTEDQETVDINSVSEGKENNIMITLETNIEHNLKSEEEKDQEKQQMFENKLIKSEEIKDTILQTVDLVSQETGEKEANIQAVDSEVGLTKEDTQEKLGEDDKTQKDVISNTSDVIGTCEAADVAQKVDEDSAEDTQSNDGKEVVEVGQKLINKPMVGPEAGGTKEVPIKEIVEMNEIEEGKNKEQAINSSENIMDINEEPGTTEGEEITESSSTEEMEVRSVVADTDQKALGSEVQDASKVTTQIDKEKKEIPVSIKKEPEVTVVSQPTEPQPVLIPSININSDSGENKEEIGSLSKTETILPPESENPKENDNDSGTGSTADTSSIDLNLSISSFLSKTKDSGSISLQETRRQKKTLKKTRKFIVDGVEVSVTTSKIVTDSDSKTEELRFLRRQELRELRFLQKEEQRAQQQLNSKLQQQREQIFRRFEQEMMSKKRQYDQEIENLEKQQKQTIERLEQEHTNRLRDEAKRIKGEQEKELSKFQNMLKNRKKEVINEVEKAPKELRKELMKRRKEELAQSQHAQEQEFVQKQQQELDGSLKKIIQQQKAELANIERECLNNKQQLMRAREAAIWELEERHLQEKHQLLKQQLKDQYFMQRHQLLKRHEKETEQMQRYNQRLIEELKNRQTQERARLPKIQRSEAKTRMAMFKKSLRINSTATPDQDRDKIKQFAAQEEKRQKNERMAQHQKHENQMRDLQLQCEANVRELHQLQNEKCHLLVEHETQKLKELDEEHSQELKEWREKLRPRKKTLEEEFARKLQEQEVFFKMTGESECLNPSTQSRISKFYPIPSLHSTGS
UniProt P31751: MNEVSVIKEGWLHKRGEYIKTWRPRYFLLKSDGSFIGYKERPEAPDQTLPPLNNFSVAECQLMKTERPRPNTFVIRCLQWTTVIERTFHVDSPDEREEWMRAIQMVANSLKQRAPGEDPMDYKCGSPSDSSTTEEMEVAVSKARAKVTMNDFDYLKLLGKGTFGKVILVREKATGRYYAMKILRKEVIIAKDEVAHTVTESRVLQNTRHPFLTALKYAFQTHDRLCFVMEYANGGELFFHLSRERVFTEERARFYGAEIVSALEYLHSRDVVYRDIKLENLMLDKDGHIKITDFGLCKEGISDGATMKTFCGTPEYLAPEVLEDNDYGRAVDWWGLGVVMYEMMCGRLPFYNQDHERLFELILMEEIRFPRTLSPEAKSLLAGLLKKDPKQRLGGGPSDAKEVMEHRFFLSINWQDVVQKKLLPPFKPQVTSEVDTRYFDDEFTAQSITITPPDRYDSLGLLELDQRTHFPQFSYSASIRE
UniProt P19784, whole entry, looked up: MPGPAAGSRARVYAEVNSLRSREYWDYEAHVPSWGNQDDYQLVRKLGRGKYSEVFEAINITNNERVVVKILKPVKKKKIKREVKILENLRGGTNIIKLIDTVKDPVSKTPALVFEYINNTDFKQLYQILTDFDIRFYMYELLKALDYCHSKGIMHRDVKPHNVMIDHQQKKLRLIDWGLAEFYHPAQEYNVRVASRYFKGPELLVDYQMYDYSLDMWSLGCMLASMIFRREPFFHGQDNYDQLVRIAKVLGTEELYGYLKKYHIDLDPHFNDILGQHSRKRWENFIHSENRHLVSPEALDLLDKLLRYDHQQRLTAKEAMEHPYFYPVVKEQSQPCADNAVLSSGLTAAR
UniProt P07948: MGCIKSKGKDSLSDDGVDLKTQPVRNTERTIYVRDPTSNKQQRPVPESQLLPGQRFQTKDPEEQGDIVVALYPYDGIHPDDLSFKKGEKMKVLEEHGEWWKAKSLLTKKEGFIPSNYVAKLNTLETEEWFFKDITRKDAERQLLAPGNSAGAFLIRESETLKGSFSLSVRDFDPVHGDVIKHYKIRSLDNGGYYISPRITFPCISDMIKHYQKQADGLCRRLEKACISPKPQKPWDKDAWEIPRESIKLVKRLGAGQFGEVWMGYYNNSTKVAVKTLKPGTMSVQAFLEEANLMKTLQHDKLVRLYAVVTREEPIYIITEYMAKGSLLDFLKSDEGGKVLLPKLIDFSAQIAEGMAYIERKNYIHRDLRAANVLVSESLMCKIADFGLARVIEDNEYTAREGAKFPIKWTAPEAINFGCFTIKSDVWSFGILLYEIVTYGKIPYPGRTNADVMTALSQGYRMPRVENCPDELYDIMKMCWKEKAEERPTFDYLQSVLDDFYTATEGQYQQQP
UniProt Q9UQM7, whole entry, looked up: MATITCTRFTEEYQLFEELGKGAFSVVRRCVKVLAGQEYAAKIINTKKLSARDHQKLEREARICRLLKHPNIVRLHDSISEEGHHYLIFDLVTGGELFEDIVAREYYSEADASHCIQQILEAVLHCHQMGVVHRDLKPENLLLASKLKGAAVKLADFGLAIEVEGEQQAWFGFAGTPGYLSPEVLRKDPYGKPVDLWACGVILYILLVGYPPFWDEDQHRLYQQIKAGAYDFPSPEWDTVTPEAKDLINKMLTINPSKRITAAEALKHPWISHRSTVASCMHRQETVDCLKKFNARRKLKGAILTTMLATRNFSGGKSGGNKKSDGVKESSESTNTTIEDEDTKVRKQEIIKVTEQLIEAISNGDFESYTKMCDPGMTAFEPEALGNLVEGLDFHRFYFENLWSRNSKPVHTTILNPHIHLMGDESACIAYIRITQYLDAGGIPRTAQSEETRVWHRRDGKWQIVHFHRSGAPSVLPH
UniProt Q9UEE5: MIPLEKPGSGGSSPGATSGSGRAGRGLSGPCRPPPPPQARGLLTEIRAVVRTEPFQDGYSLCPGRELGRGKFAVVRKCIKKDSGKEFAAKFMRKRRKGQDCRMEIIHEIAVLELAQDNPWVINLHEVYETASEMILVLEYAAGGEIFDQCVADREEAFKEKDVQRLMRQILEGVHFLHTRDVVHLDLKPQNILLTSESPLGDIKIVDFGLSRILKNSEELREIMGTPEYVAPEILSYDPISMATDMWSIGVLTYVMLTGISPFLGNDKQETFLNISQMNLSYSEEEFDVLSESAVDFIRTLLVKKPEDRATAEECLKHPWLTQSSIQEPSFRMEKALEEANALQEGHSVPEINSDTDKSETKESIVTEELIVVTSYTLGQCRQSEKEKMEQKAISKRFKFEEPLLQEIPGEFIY
UniProt Q8TD19: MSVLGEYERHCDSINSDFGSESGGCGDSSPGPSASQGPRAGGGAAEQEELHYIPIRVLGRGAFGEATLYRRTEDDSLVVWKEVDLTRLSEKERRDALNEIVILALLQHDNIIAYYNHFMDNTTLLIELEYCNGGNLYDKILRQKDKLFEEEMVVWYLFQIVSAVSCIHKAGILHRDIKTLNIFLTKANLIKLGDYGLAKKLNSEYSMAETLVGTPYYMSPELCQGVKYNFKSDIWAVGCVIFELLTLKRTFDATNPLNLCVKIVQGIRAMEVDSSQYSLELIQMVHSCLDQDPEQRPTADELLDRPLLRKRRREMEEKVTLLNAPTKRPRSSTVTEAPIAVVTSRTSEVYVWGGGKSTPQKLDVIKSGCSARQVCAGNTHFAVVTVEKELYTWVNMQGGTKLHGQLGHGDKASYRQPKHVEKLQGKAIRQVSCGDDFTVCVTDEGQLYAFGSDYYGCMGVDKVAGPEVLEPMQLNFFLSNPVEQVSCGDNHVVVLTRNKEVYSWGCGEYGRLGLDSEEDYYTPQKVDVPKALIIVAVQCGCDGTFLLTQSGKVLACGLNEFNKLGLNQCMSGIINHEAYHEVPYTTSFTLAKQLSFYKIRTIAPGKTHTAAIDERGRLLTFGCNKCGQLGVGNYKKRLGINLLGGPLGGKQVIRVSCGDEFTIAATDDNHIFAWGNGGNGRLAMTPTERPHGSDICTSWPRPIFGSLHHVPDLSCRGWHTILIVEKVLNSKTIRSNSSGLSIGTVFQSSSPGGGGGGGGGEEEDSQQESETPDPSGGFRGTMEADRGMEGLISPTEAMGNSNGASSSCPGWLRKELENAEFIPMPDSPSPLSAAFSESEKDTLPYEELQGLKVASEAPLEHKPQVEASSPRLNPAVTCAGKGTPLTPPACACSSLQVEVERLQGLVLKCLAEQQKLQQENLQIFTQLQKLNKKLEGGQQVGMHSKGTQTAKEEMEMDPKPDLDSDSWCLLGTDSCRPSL
UniProt Q96GD4, whole entry, looked up: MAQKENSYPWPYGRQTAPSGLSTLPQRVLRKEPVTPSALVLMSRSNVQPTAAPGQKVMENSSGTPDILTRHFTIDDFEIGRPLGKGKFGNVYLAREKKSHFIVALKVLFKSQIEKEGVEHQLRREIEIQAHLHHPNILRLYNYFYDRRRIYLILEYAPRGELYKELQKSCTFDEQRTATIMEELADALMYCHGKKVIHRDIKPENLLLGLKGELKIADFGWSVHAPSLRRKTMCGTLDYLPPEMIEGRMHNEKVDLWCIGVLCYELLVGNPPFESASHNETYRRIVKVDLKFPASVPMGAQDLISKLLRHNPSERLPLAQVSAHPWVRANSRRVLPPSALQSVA
UniProt P05771, whole entry, looked up: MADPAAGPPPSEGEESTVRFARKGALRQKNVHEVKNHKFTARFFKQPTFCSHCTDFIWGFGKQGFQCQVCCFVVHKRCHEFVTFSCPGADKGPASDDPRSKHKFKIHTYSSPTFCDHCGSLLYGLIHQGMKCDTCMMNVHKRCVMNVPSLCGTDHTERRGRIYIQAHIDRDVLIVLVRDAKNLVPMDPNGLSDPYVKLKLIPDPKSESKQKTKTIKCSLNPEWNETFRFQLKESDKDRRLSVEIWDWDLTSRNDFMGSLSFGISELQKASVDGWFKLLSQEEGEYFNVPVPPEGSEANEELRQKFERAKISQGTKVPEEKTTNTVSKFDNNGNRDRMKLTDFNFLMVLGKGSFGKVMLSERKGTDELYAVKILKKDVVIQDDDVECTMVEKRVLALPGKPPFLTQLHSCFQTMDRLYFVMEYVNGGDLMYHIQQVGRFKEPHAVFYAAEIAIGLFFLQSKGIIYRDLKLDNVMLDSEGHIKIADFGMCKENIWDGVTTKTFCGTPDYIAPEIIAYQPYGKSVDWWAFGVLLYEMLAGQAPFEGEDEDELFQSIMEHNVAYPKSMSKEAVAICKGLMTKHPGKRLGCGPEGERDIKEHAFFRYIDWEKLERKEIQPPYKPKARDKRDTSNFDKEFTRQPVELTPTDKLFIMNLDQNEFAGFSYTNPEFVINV
UniProt O15264: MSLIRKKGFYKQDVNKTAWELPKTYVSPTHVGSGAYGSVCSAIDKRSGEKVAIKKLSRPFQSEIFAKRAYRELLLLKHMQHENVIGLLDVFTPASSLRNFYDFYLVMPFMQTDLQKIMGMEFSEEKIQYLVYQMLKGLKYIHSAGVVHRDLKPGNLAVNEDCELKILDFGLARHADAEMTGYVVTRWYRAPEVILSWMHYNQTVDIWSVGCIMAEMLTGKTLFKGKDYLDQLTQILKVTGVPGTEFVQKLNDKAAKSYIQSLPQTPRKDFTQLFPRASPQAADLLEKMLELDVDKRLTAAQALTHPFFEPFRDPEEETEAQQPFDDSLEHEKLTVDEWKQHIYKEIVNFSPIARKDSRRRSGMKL
UniProt Q9H3Y6: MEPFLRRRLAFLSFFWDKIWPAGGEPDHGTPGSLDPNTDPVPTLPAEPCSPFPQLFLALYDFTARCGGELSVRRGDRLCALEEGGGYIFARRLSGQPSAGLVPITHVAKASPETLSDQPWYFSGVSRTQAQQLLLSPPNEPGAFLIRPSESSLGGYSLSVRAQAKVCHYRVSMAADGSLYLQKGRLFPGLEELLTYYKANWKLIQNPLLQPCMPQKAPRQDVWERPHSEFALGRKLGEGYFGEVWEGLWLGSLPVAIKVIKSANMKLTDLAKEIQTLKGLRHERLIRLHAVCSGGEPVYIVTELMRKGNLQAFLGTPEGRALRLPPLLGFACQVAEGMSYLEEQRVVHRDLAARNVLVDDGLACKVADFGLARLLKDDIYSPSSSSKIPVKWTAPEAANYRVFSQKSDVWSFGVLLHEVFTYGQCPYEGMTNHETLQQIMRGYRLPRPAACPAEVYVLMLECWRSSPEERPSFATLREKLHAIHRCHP

Experiments:
Assay in all cases: radiometric filter-binding kinase assay, Kinase HotSpot
Details in all cases: compound 0.5 µM; ATP 10 µM
AXL (human) = AXL (human) (UniProt P30530)
ABL1 (human) = ABL1 (human) (UniProt P00519)
CAMKK1 (human) = CAMKK1 (human) (UniProt Q8N5S9)
CSNK1E (human) = CSNK1E (human) (UniProt P49674)
SLK (human) = SLK (human) (UniProt Q9H2G2)
AKT2 (human) = AKT2 (human) (UniProt P31751)
MAP3K3 (human) = MAP3K3 (human) (UniProt Q99759)
PAK4 (human) = PAK4 (human) (UniProt O96013)
GRK5 (human) = GRK5 (human) (UniProt P34947)
SRPK3 (human) = SRPK3 (human) (UniProt Q9UPE1)
PAK2 (human) = PAK2 (human) (UniProt Q13177)
CSNK1A1 (human) = CSNK1A1 (human) (UniProt P48729)
PRKACG (human) = PRKACG (human) (UniProt P22612)
DMPK (human) = DMPK (human) (UniProt Q09013)
SRC (human) = SRC (human) (UniProt P12931)
MAPK8 (human) = MAPK8 (human) (UniProt P45983)
CSNK2A2 (human) = CSNK2A2 (human) (UniProt P19784)
SYK (human) = SYK (human) (UniProt P43405)
LYN (human) = LYN (human) (UniProt P07948)
PNCK (human) = PNCK (human) (UniProt Q6P2M8)
MAP2K2 (human) = MAP2K2 (human) (UniProt P36507)
CSNK1G2 (human) = CSNK1G2 (human) (UniProt P78368)
CDC42BPB (human) = CDC42BPB (human) (UniProt Q9Y5S2)
CAMK2A (human) = CAMK2A (human) (UniProt Q9UQM7)
STK17A (human) = STK17A (human) (UniProt Q9UEE5)
DAPK3 (human) = DAPK3 (human) (UniProt O43293)
NEK9 (human) = NEK9 (human) (UniProt Q8TD19)
SIK2 (human) = SIK2 (human) (UniProt Q9H0K1)
PTK2 (human) = PTK2 (human) (UniProt Q05397)
AURKB (human) = AURKB (human) (UniProt Q96GD4)
WNK3 (human) = WNK3 (human) (UniProt Q9BYP7)
CAMK1D (human) = CAMK1D (human) (UniProt Q8IU85)
TGFBR2 (human) = TGFBR2 (human) (UniProt P37173)
CLK4 (human) = CLK4 (human) (UniProt Q9HAZ1)
PDGFRB (human) = PDGFRB (human) (UniProt P09619)
PRKCB2 (human) = PRKCB2 (human) (UniProt P05771)
MAPK13 (human) = MAPK13 (human) (UniProt O15264)
SRMS (human) = SRMS (human) (UniProt Q9H3Y6)
PRKCI (human) = PRKCI (human) (UniProt P41743)
PIM3 (human) = PIM3 (human) (UniProt Q86V86)
MAPK11 (human) = MAPK11 (human) (UniProt Q15759)
GRK7 (human) = GRK7 (human) (UniProt Q8WTQ7)

O=C1Nc2ccc3ncsc3c2/C1=C/c1c[nH]cn1
residual activity (AXL (human)): 101%
residual activity (ABL1 (human)): 71.6%
residual activity (CAMKK1 (human)): 58.1%
residual activity (CSNK1E (human)): 35.7%
residual activity (SLK (human)): 62.9%
residual activity (AKT2 (human)): 89.7%
residual activity (MAP3K3 (human)): 82.5%
residual activity (PAK4 (human)): 76.5%
residual activity (GRK5 (human)): 81.3%
residual activity (SRPK3 (human)): 90.2%
residual activity (PAK2 (human)): 82.8%
residual activity (CSNK1A1 (human)): 67.6%
residual activity (PRKACG (human)): 87.6%
residual activity (DMPK (human)): 95.8%
residual activity (SRC (human)): 78.1%
residual activity (MAPK8 (human)): 86.6%
residual activity (CSNK2A2 (human)): 22%
residual activity (SYK (human)): 74.4%
residual activity (LYN (human)): 73.2% and 84.5%
residual activity (PNCK (human)): 99.6%
residual activity (MAP2K2 (human)): 95%
residual activity (CSNK1G2 (human)): 79.1%
residual activity (CDC42BPB (human)): 87.8%
residual activity (CAMK2A (human)): 42.3%
residual activity (STK17A (human)): 6.82%
residual activity (DAPK3 (human)): 89.1%
residual activity (NEK9 (human)): 32%
residual activity (SIK2 (human)): 74%
residual activity (PTK2 (human)): 71.4%
residual activity (AURKB (human)): 11.1%
residual activity (WNK3 (human)): 84.9%
residual activity (CAMK1D (human)): 117%
residual activity (TGFBR2 (human)): 75.1%
residual activity (CLK4 (human)): 9.93%
residual activity (PDGFRB (human)): 41%
residual activity (PRKCB2 (human)): 87.6%
residual activity (MAPK13 (human)): 90.4%
residual activity (SRMS (human)): 96.9%
residual activity (PRKCI (human)): 80.3%
residual activity (PIM3 (human)): 34.9%
residual activity (MAPK11 (human)): 96.1%
residual activity (GRK7 (human)): 81.3%
